Reference: PubChem BioAssay AID504326 (The Scripps Research Institute Molecular Screening Center, 2011)
Only a part is listed here, and it is no random draw. The source made the active and inactive calls. Rule as the data show it: active = activation above about 18%; inactive = the rest.

Sequences of proteins named here, by UniProt entry; tags and fusion partners are left off.
UniProt P35372, whole entry, looked up: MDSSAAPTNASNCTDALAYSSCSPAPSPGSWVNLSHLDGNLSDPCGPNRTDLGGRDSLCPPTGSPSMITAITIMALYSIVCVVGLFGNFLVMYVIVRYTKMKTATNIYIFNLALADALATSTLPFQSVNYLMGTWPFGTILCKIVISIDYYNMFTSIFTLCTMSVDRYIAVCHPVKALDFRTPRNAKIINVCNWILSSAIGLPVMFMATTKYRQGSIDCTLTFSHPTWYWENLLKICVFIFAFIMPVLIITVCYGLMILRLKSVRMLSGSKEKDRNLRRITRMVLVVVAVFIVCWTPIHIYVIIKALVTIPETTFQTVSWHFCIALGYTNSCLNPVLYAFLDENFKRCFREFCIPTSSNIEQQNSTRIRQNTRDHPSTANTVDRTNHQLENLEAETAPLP
UniProt P41143, whole entry, looked up: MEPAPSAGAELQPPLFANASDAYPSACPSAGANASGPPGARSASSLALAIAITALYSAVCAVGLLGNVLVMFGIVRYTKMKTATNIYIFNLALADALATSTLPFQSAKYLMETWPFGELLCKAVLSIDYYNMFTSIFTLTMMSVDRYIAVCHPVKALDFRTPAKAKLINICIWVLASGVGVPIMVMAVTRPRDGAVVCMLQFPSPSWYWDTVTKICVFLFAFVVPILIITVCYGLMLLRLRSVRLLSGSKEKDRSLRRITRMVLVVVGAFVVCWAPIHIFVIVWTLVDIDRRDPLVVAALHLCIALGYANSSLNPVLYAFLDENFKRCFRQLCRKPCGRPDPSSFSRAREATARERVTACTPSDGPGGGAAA

biological target: Mu-type opioid receptor (Homo sapiens) + Delta-type opioid receptor (Homo sapiens) (UniProt P35372+P41143); experiment: inducers of mu-delta opioid receptor heterodimers – cell-based, luminescence, primary screen (AID 504326); conditions: cells, OPRM1-OPRD1 heterodimerization, at 9.3 µM, active compounds read high;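 also: 0% = vehicle-treated cells and 100% = reference agonist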

Row | SMILES | activation
1 | O=[N+]([O-])c1ccc2c(c1)nnn2O | inactive: -0.02%
2 | CC1CCCCN1C(=O)Cn1cnc2c1c(=O)n(C)c(=O)n2C (stereo not given) | inactive: -1.16%
3 | CN(C)C(=O)c1cc([N+](=O)[O-])cc2c1-c1c(cc([N+](=O)[O-])cc1[N+](=O)[O-])C2=O | inactive: 11.6%
4 | Cc1ccc2c(c1)C1CN(C)CCC1N2C(=S)NC(=O)c1ccc(Br)cc1 (stereo not given) | inactive: -4.92%
5 | CCc1cccc(C)c1NC(=O)Cn1c(NCCO)nc2ccccc21 | inactive: -1.88%
6 | CC(C)CN(C(=O)Cn1c(C(F)(F)F)nc2ccccc21)C1CCS(=O)(=O)C1 (stereo not given) | inactive: -0.76%
7 | O=C(Cn1cnc2ccccc21)N/N=C/c1ccccc1[N+](=O)[O-] | inactive: -1.61%
8 | N#CCCN(C(=O)COC(=O)C(O)(c1ccccc1)c1ccccc1)c1ccc(F)cc1 | inactive: -1.14%
9 | O=C(CSc1nc2ccccc2n1CC(=O)N1CCCC1)Nc1nccs1 | inactive: -2.69%
10 | O=C(Nc1ccccc1)N1CCn2c1nc1ccccc12 | inactive: 1.83%
11 | COc1ccc(CNC(=O)[C@H](CCSC)NC(=O)N2CCn3c2nc2ccccc23)cc1 | inactive: -1.49%
12 | CCOC(=O)c1ccc(N2C(=O)CC(N3CCC(Nc4ccc(F)cc4)CC3)C2=O)cc1 (stereo not given) | inactive: -1.71%
13 | Cn1c(=O)c2c(nc(CN3CCN(c4ccccc4F)CC3)n2CCN2CCOCC2)n(C)c1=O | inactive: -1.51%
14 | Fc1ccc2c(c1)nnn2C1CCN(Cc2c(Cl)cccc2Cl)CC1 | inactive: 3.98%
15 | CC(C)[C@H](NC(=O)N1CCn2c1nc1ccccc12)C(=O)NCc1ccco1 | inactive: -2.55%
16 | CN(C(=O)Cc1ccccc1)[C@@H]1CC[C@]2(CCCO2)C[C@H]1N1CCCC1 | inactive: -0.24%
17 | CCOP1(=S)c2c(C)nn(CCC#N)c2N=C(c2ccc(F)cc2)N1C (stereo not given) | inactive: 0.15%
18 | Cc1nn2c3ccccc3n(CCN3CCCCC3)c2nc1=O | inactive: -2.21%
19 | Cc1ccc2c(c1)C1CN(C)CCC1N2S(=O)(=O)c1ccc(C#N)cc1 (stereo not given) | inactive: -3.58%
20 | FC(F)(F)c1ccc2c(c1)ncn2C1CCN(Cc2nnnn2C2CCCCC2)CC1 | inactive: -0.25%
21 | CC1Cc2ccccc2N1C(=O)CSc1nc2ccccc2n1CC(=O)N1CCOCC1 (stereo not given) | inactive: -0.67%
22 | Nc1nc2ccccc2n1CCN1CCCC1 | inactive: -2.1%
23 | CC(C)NC(=S)N1CCn2c(nc3ccccc32)C1 | inactive: -0.13%

Row | SMILES | activation
24 | O=C(CCCCCNC(=O)N1CCn2c1nc1ccccc12)NCc1ccc(Cl)cc1 | inactive: -1.96%
25 | CCCCNC(=O)Cn1c(=O)n(C)c2ccccc21 | inactive: 0.33%
26 | O=C(Cn1cnc2c(NCc3ccccc3)ncnc21)NCCc1cc2ccccc2[nH]1 | inactive: -1.58%
27 | NC(=O)Nc1ccc([As](=O)(O)O)cc1 | inactive: -3.08%
28 | O=C(Cn1cnc2ccccc21)N/N=C/c1cccc([N+](=O)[O-])c1 | inactive: 0.93%
29 | Cc1nc2ccccc2n1C1CC(=O)N(N(C)C)C1=O (stereo not given) | inactive: -3.26%
30 | CC(=O)Nc1nc2ccccc2n1CCN1CCOCC1 | inactive: -0.23%
31 | CCOC(=O)C1=C(Cn2cnc3ccccc32)NC(=O)NC1c1ccc(OC)cc1 (stereo not given) | inactive: -1.03%
32 | CC(=O)OCCNC(=O)Cn1cnc2c1c(=O)n(C)c(=O)n2C | inactive: -2.62%
33 | Cc1cccc(C)c1NC(=O)Cn1cnc2c(=O)n(C)c(=O)n(C)c21 | inactive: -1.72%
34 | CCC(C)NC(=O)Cn1c(COc2ccc(Cl)cc2Cl)nc2ccccc21 (stereo not given) | inactive: 2.62%
35 | CCC(C)[C@H](NC(=O)N1CCn2c1nc1ccccc12)C(=O)NCc1ccc(OC)cc1 (stereo not given in full) | inactive: 2.72%
36 | Cn1c(=O)[nH]c(=O)c2c1ncn2CCN1CCOCC1 | inactive: -0.29%
37 | Cn1c(=O)c2c(ncn2CC(=O)N(Cc2ccccc2)c2ccccn2)n(C)c1=O | inactive: -4.11%
38 | Cc1ccc(C(=O)Nc2nc3ccccc3n2CCN2CCCC2)cc1 | inactive: 3.82%
39 | CCN(CC)CCn1c(NCc2ccc(C)o2)nc2ccccc21 | inactive: -1.34%
40 | O=C(Nc1nc2ccccc2n1CCN1CCCC1)C1CCCCC1 | inactive: -1.5%
41 | CCOC(=O)c1ccccc1NC(=O)Cn1cnc2c1c(=O)n(C)c(=O)n2C | inactive: 1.37%
42 | NC(=O)Cn1c(-c2nonc2N)nc2ccccc21 | inactive: 0.25%
43 | COCCN1CCn2c(nc3cc(NC(=O)NC4CCCCC4)ccc32)C1 | inactive: 1.05%
44 | Cc1ccc2c(c1)C1CN(C)CCC1N2C(=O)c1cn(-c2ccccc2)nc1-c1ccccc1 (stereo not given) | inactive: 0.72%
45 | Nc1nonc1-c1nc2ccccc2n1CC(=O)N/N=C/c1ccc(-c2cccc(C(=O)O)c2)o1 | inactive: -2.18%
46 | O=C(O)COc1ccc([As](=O)(O)O)cc1[N+](=O)[O-] | inactive: -1.2%

Row | SMILES | activation
47 | Nc1ccccc1[As](=O)(O)c1ccccc1 | inactive: -1.89%
48 | O=C(Cn1cnc2ccccc21)N/N=C/c1ccc([N+](=O)[O-])cc1 | inactive: 4.39%
49 | CCOC(=O)CNC(=S)N1CCn2c(nc3ccccc32)C1 | inactive: -2.32%
50 | Cc1nc2ccccc2n1CC(=O)NCc1ccccc1 | inactive: -0.3%
51 | CCOC(=O)C1CCN(C(=O)CC2C(=O)N(Cc3ccccc3)C(C)c3nc4ccccc4n32)CC1 (stereo not given) | inactive: -3.98%
52 | O=C(C1CCN(S(=O)(=O)c2cnc[nH]2)CC1)N1CCn2c1nc1ccccc12 | inactive: -7.78%
53 | Cn1c(=O)c2c(ncn2CC(=O)N/N=C/C=C/c2ccco2)n(C)c1=O | inactive: -3.02%
54 | Cn1c(=O)c2c(ncn2CC(=O)N/N=C/c2cn[nH]c2-c2ccc(F)cc2)n(C)c1=O | inactive: 0.45%
55 | COc1cccc(C(=O)CSc2nc3ccccc3n2CC(=O)N(C(C)C)C(C)C)c1 | inactive: -3.17%
56 | CC(C)Sc1nc2ccccc2n1CC(=O)NCc1ccc2c(c1)OCO2 | inactive: -0.21%
57 | Cn1c(=O)n(Cc2ccc(F)cc2)c(=O)c2c1nc1n2CCN1Cc1ccco1 | inactive: 1.47%
58 | NNC(=O)Cn1c(COc2ccc(Cl)cc2)nc2ccccc21 | inactive: 4.38%
59 | NC(=O)CC(NC(=O)Cc1cccc2ccccc12)c1ccc(NC2CCN(Cc3ccccc3)CC2)c([N+](=O)[O-])c1 (stereo not given) | inactive: -0.26%
60 | N=c1n(CCN2CCOCC2)c2ccccc2n1CC(O)COc1ccccc1 (stereo not given) | inactive: -4.15%
61 | Fc1ccc2c(c1)nnn2C1CCN(Cc2nnnn2C2CCCCC2)CC1 | inactive: -0.69%
62 | COC(=O)[C@@H](Cc1ccccc1)NC(=O)Cn1cnc2c(SC)nc(N)nc21 | inactive: -2.76%
63 | COC(CNC(=O)CC1C(=O)N(Cc2ccccc2)C(C)c2nc3ccccc3n21)OC (stereo not given) | inactive: -1.51%
64 | CC(C(O)c1ccccc1)N(C)CCn1cnc2c1c(=O)n(C)c(=O)n2C (stereo not given) | inactive: -3.68%
65 | C[C@H](NC(=O)N1CCn2c1nc1ccccc12)C(=O)NCc1ccc2c(c1)OCO2 | inactive: -2.35%
66 | CCN(Cc1ccccc1)C(=O)Cn1cnc2c1c(=O)n(C)c(=O)n2C | inactive: -2.37%
67 | CCN(CC)CCn1c(=N)n(CC(O)COc2ccccc2)c2ccccc21 (stereo not given) | inactive: -2.07%
68 | COC(=O)[C@H](CCSC)NC(=O)Cn1cnc2c(SC)nc(N)nc21 | inactive: -5.33%
69 | O=C1NCN(c2ccccc2)C12CCN(c1nnnn1-c1ccccc1)CC2 | inactive: 0.32%

Row | SMILES | activation
70 | CN(C)C(=O)Cn1c(SCC(=O)N2CCCc3ccccc32)nc2ccccc21 | inactive: 0.56%
71 | CS(=O)(=O)c1cc([N+](=O)[O-])c2no[n+]([O-])c2c1 | inactive: 2.97%
72 | Cc1ccc(/C=N\NC(=O)Cn2c(C)nc3ccccc32)o1 | inactive: -1.56%
73 | Cn1c(=O)c2c(ncn2CC(=O)Nc2ccc3c(c2)OCO3)n(C)c1=O | inactive: 1.77%
74 | O=C(Cn1cnc2ccccc21)N1CCc2ccccc21 | inactive: 1.26%
75 | Cn1c(=O)n(CC(=O)Nc2ccc(F)cc2)c2ccccc21 | inactive: -1.09%
76 | C/C(=N\NC(=O)Cn1c(-c2ccccn2)nc2ccccc21)c1cccc(O)c1 | inactive: -1.9%
77 | CCN1CCC(Nc2ccnc3cc(Cl)ccc23)CC1 | inactive: -1.83%
78 | CN(C(=O)Cn1c(Cl)nc2c1c(=O)n(C)c(=O)n2C)C1CCS(=O)(=O)C1 (stereo not given) | inactive: -0.22%
79 | CCOP1(=S)c2c(C)nn(CCC#N)c2N=C(c2ccccc2F)N1C (stereo not given) | inactive: -2.57%
80 | O=C(Nc1nc2ccccc2n1CCN1CCOCC1)c1ccc(Cn2cc([N+](=O)[O-])cn2)o1 | inactive: -1.52%
81 | N#Cc1ccc(NC(=O)Cn2c3[n+](c4ccc(C(F)(F)F)cc42)CCCCC3)cc1 | inactive: -1.75%
82 | CCC(C)[C@H](NC(=O)N1CCn2c1nc1ccccc12)C(=O)NCCc1ccc(OC)c(OC)c1 (stereo not given in full) | inactive: -1.2%
83 | O=P(Nc1nccs1)(Oc1ccccc1)Oc1ccccc1 | inactive: 0.36%
84 | Cc1ccccc1NC(=O)Cn1c(NCC(C)O)nc2ccccc21 (stereo not given) | inactive: -2.55%
85 | CCc1nc2ccccc2n1CC(=O)Nc1cc(C)on1 | inactive: -0.83%
86 | CC(C)c1ccc(NC(=O)C2CC(=O)Nc3nc4ccccc4n32)cc1 (stereo not given) | inactive: -0.93%
87 | Cc1nc2ccccc2n1CC(=O)N/N=C/c1cccnc1 | inactive: -0.98%
88 | O=P(Nc1nccs1)(c1ccccc1)c1nc2ccccc2s1 (stereo not given) | inactive: -6.28%
89 | CCN(CC)CCn1c(C)nc2ccccc21 | inactive: -2.41%
90 | Cn1c(=O)c2c(ncn2CC(=O)N2CCN(S(=O)(=O)c3ccc(Cl)cc3)CC2)n(C)c1=O | inactive: 0.43%
